From article PMC11637378, “Optogenetic screening of MCT1 activity implicates a cluster of non-steroidal anti-inflammatory drugs (NSAIDs) as inhibitors of lactate transport” (PLOS ONE, 2024) come the findings set out here.

The chains behind the UniProt entries cited, without tags or fusion partners. Where a name states a change or a piece, a line headed by the entry shows the natural chain unless it says otherwise.
UniProt P36035: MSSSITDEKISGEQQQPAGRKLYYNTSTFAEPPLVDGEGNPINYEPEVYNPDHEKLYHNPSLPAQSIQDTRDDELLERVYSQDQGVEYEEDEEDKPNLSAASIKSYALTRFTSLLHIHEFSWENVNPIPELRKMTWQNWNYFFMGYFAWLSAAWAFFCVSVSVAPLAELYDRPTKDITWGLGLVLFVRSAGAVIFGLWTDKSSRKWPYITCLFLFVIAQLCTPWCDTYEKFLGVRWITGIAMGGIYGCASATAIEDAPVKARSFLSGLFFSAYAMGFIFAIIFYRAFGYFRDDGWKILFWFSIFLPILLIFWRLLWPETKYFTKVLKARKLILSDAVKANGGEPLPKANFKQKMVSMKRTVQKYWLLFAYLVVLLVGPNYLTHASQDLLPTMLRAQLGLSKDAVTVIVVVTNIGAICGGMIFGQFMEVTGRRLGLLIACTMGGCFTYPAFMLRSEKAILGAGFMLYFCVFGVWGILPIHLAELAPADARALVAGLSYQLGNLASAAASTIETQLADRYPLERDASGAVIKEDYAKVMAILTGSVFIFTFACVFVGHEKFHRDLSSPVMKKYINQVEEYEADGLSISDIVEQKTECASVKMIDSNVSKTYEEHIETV
UniProt P53987, whole entry, looked up, stated change not applied: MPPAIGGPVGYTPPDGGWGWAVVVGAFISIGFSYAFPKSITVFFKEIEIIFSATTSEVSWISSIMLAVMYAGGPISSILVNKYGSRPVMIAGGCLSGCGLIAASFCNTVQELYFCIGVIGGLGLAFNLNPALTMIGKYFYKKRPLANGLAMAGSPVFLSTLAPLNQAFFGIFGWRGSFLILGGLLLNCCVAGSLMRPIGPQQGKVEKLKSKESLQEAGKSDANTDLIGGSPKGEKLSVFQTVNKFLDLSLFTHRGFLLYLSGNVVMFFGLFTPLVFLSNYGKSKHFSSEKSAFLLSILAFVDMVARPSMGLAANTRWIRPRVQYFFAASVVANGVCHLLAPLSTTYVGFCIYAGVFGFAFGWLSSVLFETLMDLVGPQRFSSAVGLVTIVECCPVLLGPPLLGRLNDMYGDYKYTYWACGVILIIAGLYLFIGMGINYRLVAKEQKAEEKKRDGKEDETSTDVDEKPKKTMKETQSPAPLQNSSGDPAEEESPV

The target in the first experiment is R. norvegicus MCT1 (F360C) (UniProt P36035+P53987, F360C). Kind of experiment: optoMEV-MCT1 growth IC50 determination, 384-well assay. Conditions: 18 hours, dose-response of optoMEV-MCT1 normalized to parent strain SAWy518 (Fig 5B).
`CC1=C(CC(=O)O)c2cc(F)ccc2/C1=C\c1ccc([S+](C)[O-])cc1` (stereo not drawn): the IC50 (as a rule, the concentration needed to halve the response being measured) is 46 µM. For the molecule `CN1C(C(=O)Nc2ccccn2)=C(O)c2ccccc2S1(=O)=O`, the 50% inhibitory concentration (IC50) is 4.4 µM. For the molecule `Cc1cnc(NC(=O)C2=C(O)c3ccccc3S(=O)(=O)N2C)s1` [Meloxicam], the IC50 came out at 17 µM. The same measure, in the same setting: in the case of `COc1ccc2cc(CCC(C)=O)ccc2c1` [Nabumetone] it was 110 µM.

The same experiment, now with this note: optoMEV-MCT1 growth after 18 hours, non-linear regression (Fig 4C).
Consider `CCOC(=O)Oc1c(OC)cc(C(=O)O[C@@H]2C[C@@H]3CN4CCc5c([nH]c6cc(OC)ccc56)[C@H]4C[C@@H]3[C@H](C(=O)OC)[C@H]2OC)cc1OC` [Syrosingopine], for which the IC50 is 2.3 µM. `CC(Cc1ccc(O)c(O)c1)C(C)Cc1ccc(O)c(O)c1` (stereo not drawn): the IC50 stood at 1.8 µM.
